What all share (format): cell-based
In experiment [1] the target is T1, S1P1 (Homo sapiens, UniProt P21453). Nature of the experiment: Ca2+ mobilization. To be noted: % of S1P maximal response, HTC4 cells.
Experiment [2] concerns the target T1, S1P1. In words: Receptor desensitization assay in S1P1-expressing HTC4 cells. To be noted: 300 nM, 2 h preincubation.
Experiment [3] concerns the target S1P1-eGFP (Homo sapiens, UniProt P21453). To be noted: 10 nM, 30 min, HEK293.
Experiment [4] addresses S1P3 (Homo sapiens, UniProt Q99500). Nature of the experiment: Ca2+ mobilization. Particulars: % of S1P maximal response, HTC4 cells. For orientation: Calcium assays in cells follow changes in intracellular calcium, usually with a dye or a luminescent sensor.

Chains of the proteins cited; added tags and fusions are not shown.
UniProt Q99500, whole entry, species assumed: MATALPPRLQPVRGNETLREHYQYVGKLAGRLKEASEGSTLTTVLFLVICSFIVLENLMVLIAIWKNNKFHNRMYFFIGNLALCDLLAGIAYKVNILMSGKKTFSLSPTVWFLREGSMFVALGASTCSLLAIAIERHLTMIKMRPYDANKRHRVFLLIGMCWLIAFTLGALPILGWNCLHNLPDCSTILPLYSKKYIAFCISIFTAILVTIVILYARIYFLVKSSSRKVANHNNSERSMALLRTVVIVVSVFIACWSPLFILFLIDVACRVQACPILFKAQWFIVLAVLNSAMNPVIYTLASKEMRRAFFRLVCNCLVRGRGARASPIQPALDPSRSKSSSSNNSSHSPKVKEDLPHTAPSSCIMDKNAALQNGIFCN

Structures are written as SMILES. “Also recorded” adds a separate entry of the source.

Take `CCCCCCCCc1ccc(CC[C@](N)(CO)COP(=O)(O)O)cc1` [FTY720-P, (S)-FTY720-phosphate, reference compound]: the “Emax, S1P1” value in experiment [1] was found to be 85%. The “desensitization of the S1P1 response to S1P after preincubation” value in experiment [2] is recorded as “completely desensitized”. Besides, the S1P1-eGFP receptor internalization result in experiment [3] is given as “caused internalization; also recorded: caused translocation”. In experiment [4], the “Emax, S1P3” value came out at 23%.

For the origin of these results see publication PMC3446790 (Cellular signalling, 2010).
